Drawing on ChEMBL document CHEMBL5241080, “Quinoline anticancer agents active on DNA and DNA-interacting proteins: From classical to emerging therapeutic targets” (Eur J Med Chem, 2021), this text covers IC50 for 1 compound.

The target in this assay is T1, DNA topoisomerase 1 (Homo sapiens, UniProt P11387).
T1 sequence (P11387 whole entry): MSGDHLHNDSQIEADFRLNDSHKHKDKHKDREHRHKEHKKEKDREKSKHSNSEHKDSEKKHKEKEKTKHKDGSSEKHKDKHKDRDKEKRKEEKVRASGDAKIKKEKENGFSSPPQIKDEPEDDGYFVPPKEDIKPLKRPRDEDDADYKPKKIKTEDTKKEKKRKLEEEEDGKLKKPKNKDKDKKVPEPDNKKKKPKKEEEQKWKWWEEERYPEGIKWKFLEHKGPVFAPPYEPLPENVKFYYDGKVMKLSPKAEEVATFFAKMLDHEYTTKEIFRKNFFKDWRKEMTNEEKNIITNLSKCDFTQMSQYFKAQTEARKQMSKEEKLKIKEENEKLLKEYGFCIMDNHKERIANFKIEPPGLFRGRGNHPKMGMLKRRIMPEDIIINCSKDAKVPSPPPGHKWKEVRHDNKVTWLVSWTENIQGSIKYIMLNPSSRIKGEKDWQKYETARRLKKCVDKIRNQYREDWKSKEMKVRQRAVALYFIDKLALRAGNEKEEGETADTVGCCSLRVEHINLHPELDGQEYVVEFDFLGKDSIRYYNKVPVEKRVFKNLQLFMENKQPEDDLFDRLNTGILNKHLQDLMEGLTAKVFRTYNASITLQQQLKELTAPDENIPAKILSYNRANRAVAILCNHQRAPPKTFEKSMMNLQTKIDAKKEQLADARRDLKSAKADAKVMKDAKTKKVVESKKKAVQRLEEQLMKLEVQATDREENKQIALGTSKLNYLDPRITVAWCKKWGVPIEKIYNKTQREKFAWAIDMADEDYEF
Description: Inhibition of human topoisomerase 1.

With `COc1cccc2c1C(=O)c1c(O)c3c(c(O)c1C2=O)C[C@@](O)(C(=O)CO)C[C@@H]3O[C@H]1C[C@H](N)[C@H](O)[C@H](C)O1` [DOXORUBICIN], the midpoint of inhibition, the IC50, lay at 3.2 µM. This lies in the single-digit micromolar range.
